# Read-outs that look alike come from different tables or passages of the source.
# How the values were obtained:
# No. 04 Coronavirus [1] = assay: Inhibition on No. 04 Coronavirus in HELA cells (CPE method); assay type: cell-based; details: inhibition: drug added after virus
# No. 04 Coronavirus [2] = assay type: cell-based; details: prevention: drug before virus
compound,measurement,setting,value
"Nc1nc(O)c2ncn(COC(CO)CO)c2n1 [Ganciclovir, reference compound]",therapeutic index (TI),No. 04 Coronavirus [1],256
same,therapeutic index (TI),No. 04 Coronavirus [2],256

# Reference: patent US20080031868A1, “HUMAN LYSOZYME MEDICINE, ITS MANUFACTURING METHOD AND APPLICATION THEREOF” (priority 2005, published 2008)
